Antibody variant affinities, Ab-95 light chain, assay 2

From the AlphaSeq antibody data of Engelhart et al. 2022 (doi:10.1038/s41597-022-01779-4), copy in the FLAb collection.

Binding partner: SARS-CoV-2 spike HR2 peptide, sequence PDVDLGDISGINAS.

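The starting antibody came from a phage panning campaign against this peptide. In library AAYL52, one, two or three CDR residues were substituted; doubles and triples were drawn at random. In AlphaSeq, yeast of one mating type display the scFv and yeast of the other type display the target. Mating (16 h, 30 °C) was followed by selection of diploids and sequencing of their barcodes. The ratio of observed to expected reads was calibrated, replicate by replicate, on BCL2-family standards whose Kd was known from biolayer interferometry. Mating was done three times.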

The variants keep the heavy chain, the linker and the frameworks of Ab-95 (scFv order VH, the linker GGGGSGGGGSGGGGS, VL).
VH: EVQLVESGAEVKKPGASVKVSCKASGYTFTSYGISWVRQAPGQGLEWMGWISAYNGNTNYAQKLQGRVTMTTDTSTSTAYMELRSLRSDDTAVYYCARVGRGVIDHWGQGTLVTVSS
VL: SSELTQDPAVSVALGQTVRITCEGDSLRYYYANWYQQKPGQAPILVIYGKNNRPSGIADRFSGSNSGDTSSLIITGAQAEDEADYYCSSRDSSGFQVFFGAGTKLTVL

Positions count from residue 1 of the parent VL; N51R puts R in place of N. Numbers give log10(Kd / nM), so 0 is 1 nM and 3 is 1 µM. Smaller is tighter. The mean shown is taken over the replicates in which the pair was detected. An entry "no signal" has no value in the source: the pair was not observed among the diploids in any replicate. This suggests poor binding but is not conclusive. Background: pairings of library AAYL52 with three empty control strains gave a value in 28% of cases (median 3.91, 5th percentile 2.90). Values in that range, when seen in few replicates, are hard to tell from nonspecific mating. For reference, the parent read 2.31 as the reference entry and 2.25 as a member of this library.

changes | mean, log10 nM | seen in
N51R+Q96K | 4.10 | 3 of 3
D25H+N51Q+G94Q | 4.30 | 1 of 3
S26K+L27F+A32E | 3.63 | 1 of 3
E23C+K50P+D91G | 3.00 | 3 of 3
L27D+A32C+G94Q | 4.16 | 2 of 3
S55E+S88H+S93F | 2.35 | 3 of 3
L27G+R53A+S92F | no signal | 0 of 3
A32N+K50Y+S92L | no signal | 0 of 3
Y31I+A32V+S92H | 2.13 | 3 of 3
Y29H+Y30P+N52K | 2.82 | 3 of 3
G24W+Y29D+P54V | 5.13 | 1 of 3
L27T+S92R+G94V | 3.10 | 1 of 3
E23G+D91A+F95S | 2.57 | 3 of 3
R28K+S89D+F98A | 3.30 | 3 of 3
N52V+S92C+F98W | 2.36 | 3 of 3
G49S+S88R+V97K | 2.84 | 3 of 3
R28E+Y30E+S88N | 2.13 | 3 of 3
Y31S+G49C+S89K | 4.05 | 1 of 3
Y30A+R90V+Q96T | 1.34 | 3 of 3
R28T+N33V+K50W | 4.21 | 1 of 3
A32T+N33S+Q96T | 4.62 | 1 of 3
A32V+N52D+S55I | 2.72 | 3 of 3
G49C+S88Q+G94C | 4.40 | 2 of 3
E23G+K50E+S92G | 1.87 | 3 of 3
G24M+D91I+V97G | 3.65 | 3 of 3
L27N+N33P+S89N | no signal | 0 of 3
S26W+D91V+S93V | 3.65 | 3 of 3
Y30W+G49V+S55E | 5.68 | 1 of 3
G24N+L27H+S92K | no signal | 0 of 3
K50N+S92L+G94T | 2.54 | 2 of 3
A32R+N33I+F98Q | 3.51 | 1 of 3
N33H+N52W+G94N | no signal | 0 of 3
S26H+S88I+Q96T | 3.98 | 3 of 3
G24Y+Y30K+P54K | 3.38 | 1 of 3
Y31P+N33H+F98M | 4.34 | 2 of 3
Y29R+S88H+S92R | no signal | 0 of 3
G49I+N51L+R53G | 5.39 | 1 of 3
P54K+F95H | no signal | 0 of 3

Further variants, results first:

mean, log10 nM | seen in | changes
2.38 | 3 of 3 | Y31E+N51T+S93N
no signal | 0 of 3 | N51L+S93F+F98R
no signal | 0 of 3 | N33E+P54D+D91K
no signal | 0 of 3 | S89E+F95K
3.86 | 1 of 3 | N51L+R90C+F98V
4.06 | 3 of 3 | A32R+K50Y
no signal | 0 of 3 | S26E+S55H+S92V
4.75 | 3 of 3 | N33A+N52Q+S93A
3.91 | 2 of 3 | G24A+L27Y+R90I
no signal | 0 of 3 | N51H+P54A+S93I
4.09 | 3 of 3 | S26E+N33Y+S93G
3.55 | 1 of 3 | N52Y+S93M+V97I
1.27 | 3 of 3 | Y31N+S88I+S93C
3.62 | 1 of 3 | N52G+R90C+F98D
1.02 | 3 of 3 | E23Q+R28G+Y30V
2.15 | 3 of 3 | R28D+N33S+S89A
1.81 | 3 of 3 | Y29G+K50T+Q96F
5.94 | 1 of 3 | N51C+R53M+F98K
1.72 | 3 of 3 | D25K+V97E
5.00 | 2 of 3 | G24L+K50I+N51W
3.17 | 2 of 3 | A32K+N33H+S93L
1.87 | 3 of 3 | D25W+S88M
1.62 | 3 of 3 | D25R+Y30R
3.78 | 1 of 3 | R53L+R90I+D91I
2.35 | 3 of 3 | F95M+F98T
2.68 | 3 of 3 | R90C+S92Q+S93G
3.30 | 3 of 3 | K50S+R90F+S92N
2.34 | 3 of 3 | N52E+S55F+R90V
4.40 | 2 of 3 | D25Y+R28G+R53A
no signal | 0 of 3 | P54D+G94E+F95S
3.30 | 3 of 3 | G24M+L27P+Y29L
1.80 | 3 of 3 | Y31R+F98C
1.85 | 3 of 3 | E23N+R90Y+F98V
2.77 | 3 of 3 | N51S+S89Q+F95D
3.99 | 1 of 3 | R53F+D91W+S93N
2.76 | 3 of 3 | R90T+D91T+F95P
2.67 | 3 of 3 | E23N+S88R+D91F
no signal | 0 of 3 | D25G+R53E+G94W